Data as given in ChEMBL document CHEMBL1152975, “Design and synthesis of orally bioavailable serum and glucocorticoid-regulated kinase 1 (SGK1) inhibitors” (Bioorg Med Chem Lett, 2009).

Biological target: T1, Serine/threonine-protein kinase Sgk1 (Homo sapiens, UniProt O00141)
T1 sequence (O00141 whole entry): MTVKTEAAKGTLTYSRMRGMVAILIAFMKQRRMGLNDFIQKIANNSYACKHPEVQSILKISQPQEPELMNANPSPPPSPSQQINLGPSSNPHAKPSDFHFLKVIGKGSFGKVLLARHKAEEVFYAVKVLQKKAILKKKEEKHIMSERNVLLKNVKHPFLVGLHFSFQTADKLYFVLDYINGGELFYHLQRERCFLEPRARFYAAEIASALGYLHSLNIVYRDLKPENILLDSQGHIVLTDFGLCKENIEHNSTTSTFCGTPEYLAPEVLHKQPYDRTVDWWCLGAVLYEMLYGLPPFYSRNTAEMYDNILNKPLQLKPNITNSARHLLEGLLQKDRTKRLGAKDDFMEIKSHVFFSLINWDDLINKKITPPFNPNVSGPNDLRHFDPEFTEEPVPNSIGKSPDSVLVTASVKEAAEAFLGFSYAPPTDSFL
Assay: Inhibition of SGK1 by fluorescence polarization assay

**Q.** With `O=C(O)Cc1ccc(-c2c[nH]c3ncc(-c4ccc5ccccc5c4)cc23)cc1` as the compound, how does the IC50 read?
**A.** 63 nM
